The test concerns the target T1, Human CD147, tagged with His (Sino Biological) (Homo sapiens, UniProt P35613-2).
T1 construct: CD147 (EMMPRIN, basigin), human; source: bought: Sino Biological
The experiment in a line: BLI; Octet K2; His-tagged human CD147 (50 μg/mL) immobilised on anti-penta HIS (HIS1K) biosensors; antibody at various concentrations in solution; 0.1% BSA, 0.02% Tween-20 in PBS, 30 °C; 1:1 fitting, KD = kd/ka. Particulars: both partners purified.

Sequences of proteins named here, by UniProt entry; tags and fusion partners are left off. A line that says so, or that is headed by a name, gives the form on record, which may keep a tag or linker.
UniProt P35613, other isoform, or with tags, fused parts or gaps: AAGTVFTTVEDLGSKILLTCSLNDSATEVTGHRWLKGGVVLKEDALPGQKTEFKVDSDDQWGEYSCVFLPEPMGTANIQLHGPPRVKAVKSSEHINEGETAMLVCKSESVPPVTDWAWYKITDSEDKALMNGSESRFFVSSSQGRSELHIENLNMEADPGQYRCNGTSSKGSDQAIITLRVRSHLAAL

B1: HuM6-1B9, fully humanized anti-CD147 antibody (IgG1/κ) (antibody, V domains shown)
VH: EVQLVESGGGLVQPGGSLRLSCAASGFTFSSYAMSWVRQAPGKGLEWVATISSGGTYTYYPDSVKGRFTISRDNSKNTLYLQMNSLRAEDTAVYYCARFRNGAYWGQGTLVTVSS
VL: DIQMTQSPSSLSASVGDRVTITCSVSSSISSSNLHWYQQKPGKAPKPWIYGTSNLASGVPSRFSGSGSGTDYTLTISSLQPEDFATYYCQQWSNYPLTFGQGTKVEIK
As usually defined, the Kd is the free concentration of one partner at which half of the binding sites on the other are occupied at equilibrium, for simple one-to-one binding. Regarding B1, the affinity, expressed as Kd, was 2.05 nM.
